The record followed here is US20100292309A1.

The target of the test is transforming growth factor-beta. Briefly: cell-based or functional assay.

Take “recombinant human TGF-beta sRII/Fc chimera (from UniProt P37173 23-166) (Fc fusion)”: the IFN-gamma secreted by activated OT-1 in the presence of splenocytes from IL-6KO mice treated with Ad-VSV-G+Ad-hsp70, with 50 ng/mL 341-BR TGF-beta sRII/Fc was found to be 710 pg/mL and the fold increase of IFN-gamma secreted by activated OT-1 in the presence of splenocytes from IL-6KO mice was in the range of 5 to 6 fold.
